Literature values in publication PMC7822029, “Nanoparticles Based on Quaternary Ammonium Chitosan-methyl-β-cyclodextrin Conjugate for the Neuropeptide Dalargin Delivery to the Central Nervous System: An In Vitro Study” (Pharmaceutics, 2020).

Test system: Caco-2 monolayers
Conditions: cited from earlier work
Protocol: The in vitro DAL-NP permeation studies were carried out with Caco-2, which are widely used to simulate the intestinal environment in studies of oral formulations, and the bEnd.3 brain murine endothelioma cell line to simulate the BBB [24, 25]. Toxic effects of formulations were determined to select the highest peptide/carrier concentration tolerated for the permeation tests (Figure 4). As it was reported, the Leu-enkephalin transport across Caco-2 monolayers corresponds to zero value of apparent permeability. This value, in line with the data in Figure 3, was related to a rapid diges ...

Substance: Leu-enkephalin: parent enkephalin peptide, literature Caco-2 transport
- apparent permeability across Caco-2 monolayers: zero value
